US9440988B2 (dated 2016)

Test system: Shh pathway activity in Ptc1−/− cells

SMILES: CC1=C2C[C@H]3[C@@H](CC=C4C[C@@H](O)CC[C@@]43C)[C@@H]2CC[C@]12O[C@@H]1C[C@H](C)CN[C@H]1[C@H]2C [Compound 1, cyclopamine]
- Maximum normalized β-galactosidase activity: 916
- blocking/suppression of pathway activity in cells lacking Ptc1 function: fully suppressing
- minimum normalized β-galactosidase activity: 144

SMILES: CC1=C2C(=O)[C@H]3[C@@H](CC=C4C[C@@H](O)CC[C@@]43C)[C@@H]2CCC12O[C@@H]1C[C@H](C)CN[C@H]1[C@H]2C (stereo partly shown) [Compound 2, jervine]
- blocking/suppression of pathway activity in cells lacking Ptc1 function: fully suppressing
